Amino acid sequences for entries named in this document (tags omitted). A change or cut given only in a name is not applied to a line headed by its entry.
UniProt P37231: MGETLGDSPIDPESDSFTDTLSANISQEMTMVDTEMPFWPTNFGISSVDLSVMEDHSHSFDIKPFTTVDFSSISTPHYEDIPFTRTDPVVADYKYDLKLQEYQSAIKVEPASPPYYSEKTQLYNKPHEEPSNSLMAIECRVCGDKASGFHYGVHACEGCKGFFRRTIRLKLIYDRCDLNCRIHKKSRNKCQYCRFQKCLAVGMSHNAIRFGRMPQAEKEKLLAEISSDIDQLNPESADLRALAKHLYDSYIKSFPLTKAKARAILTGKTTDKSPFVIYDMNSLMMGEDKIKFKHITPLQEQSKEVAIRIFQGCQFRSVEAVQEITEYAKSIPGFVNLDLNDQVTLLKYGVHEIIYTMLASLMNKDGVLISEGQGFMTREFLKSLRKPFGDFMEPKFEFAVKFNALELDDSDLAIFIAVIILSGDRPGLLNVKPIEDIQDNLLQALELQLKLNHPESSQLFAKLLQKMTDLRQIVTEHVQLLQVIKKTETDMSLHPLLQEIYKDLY

The list shows a part of the results, in another mix than the full data. Active and inactive are the calls of the source. Rule as the data show it: active = activation above about 22%; inactive = the rest.
What follows are molecules tested against Peroxisome proliferator-activated receptor gamma (Homo sapiens) (UniProt P37231) (assay: compounds enhancing SRC-2 coactivator binding to PPARgamma – biochemical, HTS, primary screen (AID 1032;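 also: 0% = vehicle and 100% = reference agonist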)). Settings: PPARgamma LBD-SRC-2 recruitment, at 8 µM, active compounds read high.
CCC(C)N(CC(C)C)C(=S)SC(NC(C)=O)C(Cl)(Cl)Cl (stereo not given) was tested, and the activation was inactive: 17.3%.
With COP1(=S)c2c(C)nn(CCC#N)c2N=C(c2ccc(F)cc2)N1C (stereo not given) the activation was inactive: 5.31%.
With O=C(COc1ccccc1)OC1CN2CCC1CC2 (stereo not given) the activation was inactive: -0.81%.
With Cc1cc(SC(NC=O)C(Cl)(Cl)Cl)ncn1 (stereo not given) the activation was inactive: 3.79%.
In the case of O=P(Nc1ccccn1)(c1cccc2ccccc12)c1cccc2ccccc12, the activation is reported as inactive: -0.03%.
With Cc1cc(SC(NC(=O)c2ccccc2)C(Cl)(Cl)Cl)nc(C(C)C)n1 (stereo not given) the activation was inactive: 6.92%.
For ClCCSc1nnc(-c2cccnc2)o1, the activation was inactive: 1.7%.
O=[N+]([O-])c1cc([N+](=O)[O-])c(-c2ccn[nH]2)s1 was tested, and the activation was inactive: 3.37%.
CC(C)NC(=O)NP(=O)(Oc1ccccc1)Oc1ccccc1 was tested, and the activation was inactive: 0.92%.
In the case of CCN(CC)C(=S)SC(NC=O)C(Cl)(Cl)Cl (stereo not given), the activation is reported as inactive: -5.02%.
With Cc1ccc2nc3c(c(C)c2c1)CC(C(Cl)Cl)S3 (stereo not given) the activation was inactive: 0.88%.
In the case of COc1ccc(N/C(=N/P(=O)(N2CCOCC2)N2CCOCC2)N2CCOCC2)cc1, the activation is reported as inactive: 12.1%.
With Cc1cc(=O)[nH]c(N[N+](=O)[O-])n1 the activation was inactive: 0.77%.
In the case of O=C(OC1CN2CCC1CC2)C12CC3CC(CC(C3)C1)C2 (stereo not given), the activation is reported as inactive: 5.12%.
For Cc1c2c(nc3ccccc13)SC(C(Cl)Cl)C2 (stereo not given), the activation was inactive: 0.14%.
COc1ccc2nc(NP(=O)(c3ccccc3)c3ccccc3)sc2c1 was tested, and the activation was inactive: -3.71%.
For Cc1ccc(NCCc2c([N+](=O)[O-])cc([N+](=O)[O-])cc2[N+](=O)[O-])cc1, the activation was inactive: 10.7%.
With CCOP(=O)(Nc1cccc2ccccc12)OCC the activation was inactive: 3.54%.
COc1cc(C2NCCC3(OCCO3)C2(C)C)cc(OC)c1OC (stereo not given) was tested, and the activation was inactive: 7.24%.
COc1cc(C(=O)NCC2(N3CCOCC3)CCCCC2)cc(Cl)c1OC(C)C was tested, and the activation was inactive: 7.94%.
Cc1cccc(OCC(=O)OC2CN3CCC2CC3)c1 (stereo not given) was tested, and the activation was inactive: -5.05%.
In the case of O=[N+]([O-])c1ccc2c(c1)nnn2O, the activation is reported as inactive: 7.54%.
With CCOP1(=S)c2c(C)nn(CCC#N)c2N=C(c2ccc(F)cc2)N1C (stereo not given) the activation was inactive: -3.39%.
For O=P(Nc1nccs1)(Oc1ccccc1)Oc1ccccc1, the activation was inactive: -2.65%.
O=P(Nc1nccs1)(c1ccccc1)c1nc2ccccc2s1 (stereo not given) was tested, and the activation was inactive: 7.81%.
In the case of CCOP1(=S)c2c(C)nn(CCC#N)c2N=C(c2ccccc2F)N1C (stereo not given), the activation is reported as inactive: 0.96%.
In the case of O=P1(Nc2ncccn2)COc2ccccc2OC1, the activation is reported as inactive: -11.3%.
Cc1ccc(OCC(=O)OC2CN3CCC2CC3)cc1 (stereo not given) was tested, and the activation was inactive: -1.36%.
O=P1(Nc2ccc(Br)cn2)COc2ccccc2OC1 was tested, and the activation was inactive: -6.3%.
In the case of CC1CCC(C(C)C)C(OP(=O)(Nc2ccccn2)c2ccccc2)C1 (stereo not given), the activation is reported as inactive: 3.51%.
For Cc1nn(-c2ccccc2)c2c1P(=O)(N1CCOCC1)N(C)C(c1ccccc1)=N2 (stereo not given), the activation was inactive: 8.72%.
For CN(C)C1(CNC(=O)c2ccc(S(C)(=O)=O)cc2)CCCCC1, the activation was inactive: -5.96%.
In the case of CC1(CBr)Cn2c(nc3ccccc3c2=O)S1 (stereo not given), the activation is reported as inactive: 5.38%.
In the case of CN(C(=O)Cc1ccc(Cl)c(Cl)c1)[C@@H]1CCCC[C@H]1N1CCCC1, the activation is reported as inactive: 4%.
With CC(C)/C=N\N=C(\N)N[N+](=O)[O-] the activation was inactive: -10.8%.
With O=P1(Nc2ccccn2)COc2ccccc2OC1 the activation was inactive: -0.98%.
Clc1n[nH]nc1-c1nn[nH][15n]1 was tested, and the activation was inactive: 6.42%.
O=P(Nc1nccs1)(c1ccccc1)c1ccccc1 was tested, and the activation was inactive: 10.8%.
With CC(C)C(=O)NC(Sc1ccccc1)C(Cl)(Cl)Cl (stereo not given) the activation was inactive: 2.18%.
For c1nnnn1CCn1cnnn1, the activation was inactive: 0.26%.
In the case of CC(=O)NC(SC(=S)N(C)C)C(Cl)(Cl)Cl (stereo not given), the activation is reported as inactive: -10.7%.
With C(Cc1nn[nH]n1)Cc1nn[nH]n1 the activation was inactive: -5.32%.
In the case of O=C(OC1CN2CCC1CC2)c1cccc(Cl)c1 (stereo not given), the activation is reported as inactive: 10.7%.
For O=P(Nc1ccccn1)(c1ccc(Br)cc1)c1ccc(Br)cc1, the activation was inactive: 9.01%.
With Cc1ccc(OP(=O)(Nc2ccccn2)Oc2ccc(C)cc2)cc1 the activation was inactive: -6.28%.
With CC(=O)NC(SC(=S)N(CC(C)C)CC(C)C)C(Cl)(Cl)Cl (stereo not given) the activation was inactive: 13.5%.
In the case of COC(=O)c1cc2c(s1)N=C(c1ccccc1)N(C)P2(=O)N1CCOCC1 (stereo not given), the activation is reported as inactive: 3.67%.
In the case of CCC(=O)N1C2C3N(C(=O)CC)C1C1N(C(=O)CC)C(C(N1C(=O)CC)N3C(=O)CC)N2C(=O)CC, the activation is reported as inactive: 6.39%.
In the case of O=c1c2cc([N+](=O)[O-])ccc2[nH]c2c([N+](=O)[O-])cc([N+](=O)[O-])cc12, the activation is reported as inactive: -1.64%.
O=C(NC1CCS(=O)(=O)C1)NP(=S)(Oc1ccccc1)Oc1ccccc1 (stereo not given) was tested, and the activation was inactive: 0.55%.
For CCNC(=S)/N=C(\N)N[N+](=O)[O-], the activation was inactive: 0.94%.
For CCOC(=O)NC(Sc1ccccc1)C(Cl)(Cl)Cl (stereo not given), the activation was inactive: -5.05%.
With c1ccc(-c2nn[nH]n2)c(-c2nn[nH]n2)c1 the activation was inactive: 0.06%.
For CC(=O)Nc1ccc(Oc2c([N+](=O)[O-])cc([N+](=O)[O-])cc2[N+](=O)[O-])cc1, the activation was inactive: -1.17%.
With CCOc1ccc(C2=NCC(CBr)S2)cc1 (stereo not given) the activation was inactive: -0.66%.
In the case of O=P1(Nc2nc3ccc(Cl)cc3s2)COc2ccccc2O1 (stereo not given), the activation is reported as inactive: 1.46%.
With CC(C)(C)C(=O)NC(Sc1ccccc1)C(Cl)(Cl)Cl (stereo not given) the activation was inactive: -9.18%.
For CC(C)CC(=O)NC(Sc1ccc(Cl)cc1)C(Cl)(Cl)Cl (stereo not given), the activation was inactive: -9.46%.
In the case of O=C(NC(Sc1ccncn1)C(Cl)(Cl)Cl)c1ccccc1 (stereo not given), the activation is reported as inactive: -3.49%.
With Cc1c2non([O-])c-2c(C)[n+](=O)[n+]1[O-] the activation was inactive: 4.09%.
In the case of Oc1ccccc1CNc1ccccn1, the activation is reported as inactive: 0.85%.
With NC(=O)c1cc([N+](=O)[O-])cc([N+](=O)[O-])c1N the activation was inactive: -1.19%.
Cc1ccc(N/C(=N/P(=O)(N2CCOCC2)N2CCOCC2)N2CCOCC2)cc1 was tested, and the activation was inactive: 0.83%.
In the case of COc1ccccc1OP(=O)(Nc1ccc(C)cn1)Oc1ccccc1OC, the activation is reported as inactive: -3.94%.
With CN1CCCC(OC(=O)C(c2ccccc2)c2ccccc2)C1 (stereo not given) the activation was inactive: 6.16%.
With Clc1ccc(Cl)c(NC2=NCC(CBr)S2)c1 (stereo not given) the activation was inactive: 0.95%.
For CCN(N=Nc1nonc1N)c1nonc1N, the activation was inactive: -9.09%.
With Cc1cc(SC(NC(=O)c2ccc(F)cc2)C(Cl)(Cl)Cl)ncn1 (stereo not given) the activation was inactive: 5.75%.
For CCOP(=O)(Nc1ccccc1)OCC, the activation was inactive: -2.01%.
For O=[N+]([O-])c1ncn(CCn2ncnc2[N+](=O)[O-])n1, the activation was inactive: 1.48%.
With CCN(/C(=N/P(=O)(N1CCOCC1)N1CCOCC1)N1CCOCC1)c1ccc(OC)cc1 the activation was inactive: 10%.
In the case of CN(C)C(=O)OCCc1n(C)cc[n+]1C, the activation is reported as inactive: 1.22%.
In the case of CC(C)=N/N=C(\N)N[N+](=O)[O-], the activation is reported as inactive: -8.53%.
For CC1CCN(C(=O)Oc2c(Cl)cc(Cl)c3cccnc23)CC1, the activation was inactive: 7.95%.
In the case of COc1ccc(C2=NCC(CBr)S2)cc1 (stereo not given), the activation is reported as inactive: 0.14%.
With CC(=O)N1C2C3N(C(C)=O)C1C1N(C(C)=O)C(C(N1C(C)=O)N3C(C)=O)N2C(C)=O the activation was inactive: 4.46%.
With O=[N+]([O-])c1cccc2n[nH]nc12 the activation was inactive: 5.99%.
In the case of O=[N+]([O-])c1cc([N+](=O)[O-])c(CCNc2ccccc2)c([N+](=O)[O-])c1, the activation is reported as inactive: 2%.
For CCc1nc2c(n1)c1c(non1O)c1c2no[n+]1[O-], the activation was inactive: -5.79%.
With Cc1ccc(NP(=O)(Oc2ccccc2)Oc2ccccc2)nc1 the activation was inactive: -7.48%.

Source: PubChem BioAssay AID1032 (The Scripps Research Institute Molecular Screening Center, 2008)
